These are literature values, as cited in patent US8067243B2 (priority 2008, dated 2011).

Some compounds may have been tested in ways that are not shown here.

The conditions of series [1]: fentanyl transdermal patches (25 to 100 ug/hr); cited from earlier work.
The conditions of series [2]: single fentanyl dose (50 to 100 ug); cited from earlier work.

In the case of `CCC(=O)N(c1ccccc1)C1CCN(CCc2ccccc2)CC1`, in series [1], the “urine concentration in chronic pain patients” value is “less than 1080 ng/mL”. Besides, the “detection in urine following a single fentanyl dose” value in series [2] is “less than 24 hours”.
